Reference: PubChem BioAssay (NCI)
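Five concentrations, 48 hours, 96-well plates. Abbreviation: GI50, concentration required for 50% inhibition of growth. At the TGI there is no net growth.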

Tests used:
Experiment in all cases: growth of human tumour cells (NCI), 48 h
786-0 renal = tested on: 786-0 renal
A498 renal = tested on: A498 renal
A549 NSCLC = tested on: A549 NSCLC
ACHN renal = tested on: ACHN renal
BT-549 breast = tested on: BT-549 breast
CAKI-1 renal = tested on: CAKI-1 renal
CCRF-CEM leukemia = tested on: CCRF-CEM leukemia
COLO 205 colon = tested on: COLO 205 colon
DU-145 prostate = tested on: DU-145 prostate
EKVX NSCLC = tested on: EKVX NSCLC
HCC-2998 colon = tested on: HCC-2998 colon
HCT-116 colon = tested on: HCT-116 colon
HCT-15 colon = tested on: HCT-15 colon
HL-60(TB) leukemia = tested on: HL-60(TB) leukemia
HOP-62 NSCLC = tested on: HOP-62 NSCLC
HOP-92 NSCLC = tested on: HOP-92 NSCLC
HS 578T breast = tested on: HS 578T breast
HT29 colon = tested on: HT29 colon
IGROV1 ovarian = tested on: IGROV1 ovarian
K-562 leukemia = tested on: K-562 leukemia
KM12 colon = tested on: KM12 colon
LOX IMVI melanoma = tested on: LOX IMVI melanoma
M14 melanoma = tested on: M14 melanoma
MALME-3M melanoma = tested on: MALME-3M melanoma
MCF7 breast = tested on: MCF7 breast
MDA-MB-231 breast = tested on: MDA-MB-231 breast
MDA-MB-435 = tested on: MDA-MB-435
MDA-N = tested on: MDA-N
MOLT-4 leukemia = tested on: MOLT-4 leukemia
NCI-H226 lung = tested on: NCI-H226 lung
NCI-H23 lung = tested on: NCI-H23 lung
NCI-H322M lung = tested on: NCI-H322M lung
NCI-H460 lung = tested on: NCI-H460 lung
NCI-H522 lung = tested on: NCI-H522 lung
NCI/ADR-RES ovarian = tested on: NCI/ADR-RES ovarian
OVCAR-3 ovarian = tested on: OVCAR-3 ovarian
OVCAR-4 ovarian = tested on: OVCAR-4 ovarian
OVCAR-5 ovarian = tested on: OVCAR-5 ovarian
OVCAR-8 ovarian = tested on: OVCAR-8 ovarian
PC-3 prostate = tested on: PC-3 prostate
RPMI-8226 leukemia = tested on: RPMI-8226 leukemia
RXF 393 renal = tested on: RXF 393 renal
SF-268 CNS = tested on: SF-268 CNS
SF-295 CNS = tested on: SF-295 CNS
SF-539 CNS = tested on: SF-539 CNS
SK-MEL-2 melanoma = tested on: SK-MEL-2 melanoma
SK-MEL-28 melanoma = tested on: SK-MEL-28 melanoma
SK-MEL-5 melanoma = tested on: SK-MEL-5 melanoma
SK-OV-3 ovarian = tested on: SK-OV-3 ovarian
SN12C renal = tested on: SN12C renal
SNB-19 CNS = tested on: SNB-19 CNS
SNB-75 CNS = tested on: SNB-75 CNS
SR leukemia = tested on: SR leukemia
SW-620 colon = tested on: SW-620 colon
T-47D breast = tested on: T-47D breast
TK-10 renal = tested on: TK-10 renal
U251 CNS = tested on: U251 CNS
UACC-257 melanoma = tested on: UACC-257 melanoma
UACC-62 melanoma = tested on: UACC-62 melanoma
UO-31 renal = tested on: UO-31 renal

Structure (SMILES): CN1CCCC(OC(=O)C(c2ccccc2)c2ccccc2)C1 (stereo not given)
- GI50 (786-0 renal): 80.8 µM
- TGI (786-0 renal): > 100 µM
- GI50 (A498 renal): 54.4 µM
- TGI (A498 renal): > 100 µM
- GI50 (A549 NSCLC): > 100 µM
- TGI (A549 NSCLC): > 100 µM
- GI50 (ACHN renal): > 100 µM
- TGI (ACHN renal): > 100 µM
- GI50 (BT-549 breast): > 100 µM
- TGI (BT-549 breast): > 100 µM
- GI50 (CAKI-1 renal): 89.6 µM
- TGI (CAKI-1 renal): > 100 µM
- GI50 (CCRF-CEM leukemia): 74.1 µM
- TGI (CCRF-CEM leukemia): > 100 µM
- GI50 (COLO 205 colon): 36.1 µM
- TGI (COLO 205 colon): > 100 µM
- GI50 (DU-145 prostate): > 100 µM
- TGI (DU-145 prostate): > 100 µM
- GI50 (EKVX NSCLC): 52 µM
- TGI (EKVX NSCLC): > 100 µM
- GI50 (HCC-2998 colon): 23 µM
- TGI (HCC-2998 colon): 47.6 µM
- GI50 (HCT-116 colon): 81.3 µM
- TGI (HCT-116 colon): > 100 µM
- GI50 (HCT-15 colon): > 100 µM
- TGI (HCT-15 colon): > 100 µM
- GI50 (HL-60(TB) leukemia): 25.1 µM
- TGI (HL-60(TB) leukemia): > 100 µM
- GI50 (HOP-62 NSCLC): > 100 µM
- TGI (HOP-62 NSCLC): > 100 µM
- GI50 (HOP-92 NSCLC): 39.8 µM
- TGI (HOP-92 NSCLC): > 100 µM
- GI50 (HS 578T breast): > 100 µM
- TGI (HS 578T breast): > 100 µM
- GI50 (HT29 colon): 30.2 µM
- TGI (HT29 colon): > 100 µM
- GI50 (IGROV1 ovarian): 71.5 µM
- TGI (IGROV1 ovarian): > 100 µM
- GI50 (K-562 leukemia): 33.3 µM
- TGI (K-562 leukemia): > 100 µM
- GI50 (KM12 colon): > 100 µM
- TGI (KM12 colon): > 100 µM
- GI50 (LOX IMVI melanoma): > 100 µM
- TGI (LOX IMVI melanoma): > 100 µM
- GI50 (M14 melanoma): 16.6 µM
- TGI (M14 melanoma): 31.1 µM
- GI50 (MALME-3M melanoma): 48.2 µM
- TGI (MALME-3M melanoma): > 100 µM
- GI50 (MCF7 breast): > 100 µM
- TGI (MCF7 breast): > 100 µM
- GI50 (MDA-MB-231 breast): > 100 µM
- TGI (MDA-MB-231 breast): > 100 µM
- GI50 (MDA-MB-435): 83.6 µM
- TGI (MDA-MB-435): > 100 µM
- GI50 (MDA-N): 71.7 µM
- TGI (MDA-N): > 100 µM
- GI50 (MOLT-4 leukemia): 32.7 µM
- TGI (MOLT-4 leukemia): > 100 µM
- GI50 (NCI-H226 lung): 23 µM
- TGI (NCI-H226 lung): > 100 µM
- GI50 (NCI-H23 lung): > 100 µM
- TGI (NCI-H23 lung): > 100 µM
- GI50 (NCI-H322M lung): > 100 µM
- TGI (NCI-H322M lung): > 100 µM
- GI50 (NCI-H460 lung): > 100 µM
- TGI (NCI-H460 lung): > 100 µM
- GI50 (NCI-H522 lung): > 100 µM
- TGI (NCI-H522 lung): > 100 µM
- GI50 (NCI/ADR-RES ovarian): > 100 µM
- TGI (NCI/ADR-RES ovarian): > 100 µM
- GI50 (OVCAR-3 ovarian): 39.8 µM
- TGI (OVCAR-3 ovarian): > 100 µM
- GI50 (OVCAR-4 ovarian): > 100 µM
- TGI (OVCAR-4 ovarian): > 100 µM
- GI50 (OVCAR-5 ovarian): > 100 µM
- TGI (OVCAR-5 ovarian): > 100 µM
- GI50 (OVCAR-8 ovarian): > 100 µM
- TGI (OVCAR-8 ovarian): > 100 µM
- GI50 (PC-3 prostate): > 100 µM
- TGI (PC-3 prostate): > 100 µM
- GI50 (RPMI-8226 leukemia): 29.4 µM
- TGI (RPMI-8226 leukemia): 95.5 µM
- GI50 (RXF 393 renal): > 100 µM
- TGI (RXF 393 renal): > 100 µM
- GI50 (SF-268 CNS): > 100 µM
- TGI (SF-268 CNS): > 100 µM
- GI50 (SF-295 CNS): > 100 µM
- TGI (SF-295 CNS): > 100 µM
- GI50 (SF-539 CNS): > 100 µM
- TGI (SF-539 CNS): > 100 µM
- GI50 (SK-MEL-2 melanoma): 91.7 µM
- TGI (SK-MEL-2 melanoma): > 100 µM
- GI50 (SK-MEL-28 melanoma): 25.6 µM
- TGI (SK-MEL-28 melanoma): 54.4 µM
- GI50 (SK-MEL-5 melanoma): 31.1 µM
- TGI (SK-MEL-5 melanoma): > 100 µM
- GI50 (SK-OV-3 ovarian): > 100 µM
- TGI (SK-OV-3 ovarian): > 100 µM
- GI50 (SN12C renal): > 100 µM
- TGI (SN12C renal): > 100 µM
- GI50 (SNB-19 CNS): > 100 µM
- TGI (SNB-19 CNS): > 100 µM
- GI50 (SNB-75 CNS): > 100 µM
- TGI (SNB-75 CNS): > 100 µM
- GI50 (SR leukemia): 35 µM
- TGI (SR leukemia): > 100 µM
- GI50 (SW-620 colon): > 100 µM
- TGI (SW-620 colon): > 100 µM
- GI50 (T-47D breast): > 100 µM
- TGI (T-47D breast): > 100 µM
- GI50 (TK-10 renal): > 100 µM
- TGI (TK-10 renal): > 100 µM
- GI50 (U251 CNS): > 100 µM
- TGI (U251 CNS): > 100 µM
- GI50 (UACC-257 melanoma): 21.7 µM
- TGI (UACC-257 melanoma): 47.1 µM
- GI50 (UACC-62 melanoma): 56.1 µM
- TGI (UACC-62 melanoma): > 100 µM
- GI50 (UO-31 renal): 44.2 µM
- TGI (UO-31 renal): > 100 µM
